These results are taken from patent US20240034730A1, “PYRAZOLO DERIVATIVES AS HUMAN DIHYDROOROTATE DEHYDROGENASE (HDHODH) INHIBITORS FOR USE AS ANTIVIRALS” (DRUG DISCOVERY AND CLINIC S.R.L., priority 2020, published 2024).

Amino acid sequences for entries named in this document (tags omitted). A change or cut given only in a name is not applied to a line headed by its entry.
UniProt Q02127: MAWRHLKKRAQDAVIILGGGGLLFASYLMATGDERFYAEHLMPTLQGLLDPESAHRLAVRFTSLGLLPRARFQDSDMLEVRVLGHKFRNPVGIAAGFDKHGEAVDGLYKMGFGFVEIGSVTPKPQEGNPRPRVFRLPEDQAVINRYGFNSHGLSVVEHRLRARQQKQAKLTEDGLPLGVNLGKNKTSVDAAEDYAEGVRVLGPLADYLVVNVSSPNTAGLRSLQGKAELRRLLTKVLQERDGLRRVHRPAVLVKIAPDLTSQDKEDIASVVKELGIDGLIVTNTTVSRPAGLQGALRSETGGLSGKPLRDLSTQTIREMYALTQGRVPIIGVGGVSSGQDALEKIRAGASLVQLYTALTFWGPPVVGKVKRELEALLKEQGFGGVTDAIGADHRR

The target of one data set is recombinant hDHODH (Homo sapiens (Human), UniProt Q02127). Put plainly: hDHODH inhibition assay (DCIP reduction). It is filed as biochemical. To be noted: recombinant GST-hDHODH; means ± SE of three independent experiments.
Data set [1] in a line: log D (pH 7.4), shake-flask n-octanol/PBS. To be noted: n-octanol/PBS pH 7.4, shake flask.

A word on the IC50: it is the concentration at which inhibition is half-maximal. “2-Hydroxy-N-(2-methyl-4-(p-tolyloxy)phenyl) pyrazolo[1,5-a]pyridine-3-carboxamide [Compound 28]”: the IC50 at recombinant hDHODH turned out to be 400 ± 60 nM. Also, the “Log D7.4 ± SD” value in data set [1] is reported as 2.46 ± 0.05.
